## Ab-95 light chain CDR variants: yeast mating affinities

Target peptide (SARS-CoV-2 spike, HR2 region): PDVDLGDISGINAS

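The starting antibody came from a phage panning campaign against this peptide. Library AAYL52 holds single substitutions and randomly drawn double and triple substitutions in the CDRs. Affinity was read by AlphaSeq, a pooled yeast mating assay with surface-displayed partners. Binding brings cells together so that they mate, and sequencing counts the barcode pairs among the diploids. The ratio of observed to expected reads was calibrated, replicate by replicate, on BCL2-family standards whose Kd was known from biolayer interferometry. There are three technical replicates.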

Ab-95 is the parent antibody, in scFv form: VH, then a 15-residue (Gly4Ser)3 linker, then VL. The heavy chain is unchanged in all variants.
VH: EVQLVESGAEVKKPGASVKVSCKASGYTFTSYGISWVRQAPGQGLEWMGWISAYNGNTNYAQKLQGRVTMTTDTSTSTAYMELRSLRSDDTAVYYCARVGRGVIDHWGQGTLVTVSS
VL: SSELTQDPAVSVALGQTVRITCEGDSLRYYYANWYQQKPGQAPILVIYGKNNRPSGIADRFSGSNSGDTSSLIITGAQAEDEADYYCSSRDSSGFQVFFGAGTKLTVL

Changes read parent residue, position, new residue, counted from the first residue of the VL shown.
Every variant below is changed at N52 of the VL (sequential numbering).
The Kd shown is the geometric mean over detected replicates; a lower Kd is a better binder.
Where no diploid with the target was found in any replicate, the entry reads "nd": below detection, most likely a poor binder, though not proof of it.
Three control strains display no target. For library AAYL52, 28% of the pairings with them gave a signal, with a median of 8.2 µM and one signal in twenty below 800 nM, so weak values seen in few replicates may be background. The control count says in how many pairings with the empty strains this scFv gave a signal.

With N52P S93K the result was 11 µM (1 of 3 replicates; controls 2 of 9).
With G49H N52I S55Y the result was 4.9 µM (3 of 3 replicates; controls 6 of 9).
With N51K N52L R90H the result was 13 µM (3 of 3 replicates; controls 6 of 9).
With S26V N52A Q96A the result was nd (0 of 3 replicates; controls 0 of 9).
With Y29A N52A the result was 67 nM (3 of 3 replicates; controls 4 of 9).
With S26C N33A N52I the result was 3.5 µM (3 of 3 replicates; controls 6 of 9).
With N51Q N52H S92N the result was 20 µM (1 of 3 replicates; controls 0 of 9).
With S26W N52Y S55V the result was 1.7 µM (2 of 3 replicates; controls 5 of 9).
With E23G Y31N N52D the result was 8.1 nM (3 of 3 replicates; controls 4 of 9).
With R28L N52F F95G the result was 810 nM (2 of 3 replicates; controls 5 of 9).
With R28I N52M F98E the result was 11 µM (2 of 3 replicates; controls 2 of 9).
With L27D N52R R90W the result was 2.3 µM (2 of 3 replicates; controls 3 of 9).
With G24V N52A D91E the result was 30 µM (3 of 3 replicates; controls 3 of 9).
With N52F F95A the result was 570 nM (3 of 3 replicates; controls 1 of 9).
With N52S F95A Q96M the result was 3.3 µM (3 of 3 replicates; controls 3 of 9).
With L27R N52C P54E the result was 2.1 µM (2 of 3 replicates; controls 2 of 9).
With Y30F N52F S55N the result was 1.2 µM (3 of 3 replicates; controls 0 of 9).
With N52C S93K G94A the result was 1.6 µM (2 of 3 replicates; controls 2 of 9).
With R28T N52Q S88Q the result was 220 nM (3 of 3 replicates; controls 3 of 9).
With D25A N52D the result was 52 nM (3 of 3 replicates; controls 3 of 9).
With D25P N33I N52H the result was 110 µM (2 of 3 replicates; controls 7 of 9).
With L27H N51D N52L the result was 680 nM (3 of 3 replicates; controls 1 of 9).
With N52Y S89M F95C the result was 1.6 µM (2 of 3 replicates; controls 2 of 9).
With S26R N52Y G94V the result was 11 µM (2 of 3 replicates; controls 2 of 9).
With E23M N51W N52G the result was 7.6 µM (2 of 3 replicates; controls 4 of 9).
With K50M N52C V97G the result was 10 µM (1 of 3 replicates; controls 2 of 9).
With N33T N52A S89H the result was 36 µM (2 of 3 replicates; controls 4 of 9).
With N52R P54L V97Y the result was 50 µM (1 of 3 replicates; controls 2 of 9).
With N52K Q96H V97M the result was 2.1 µM (3 of 3 replicates; controls 5 of 9).
With R28W N52D S92T the result was 1.9 µM (3 of 3 replicates; controls 2 of 9).
With Y31N N52L F95G the result was 66 nM (3 of 3 replicates; controls 5 of 9).
With R28E N52I S92H the result was 210 nM (3 of 3 replicates; controls 5 of 9).
With N52E S89Q the result was 130 nM (3 of 3 replicates; controls 0 of 9).

Reference: Engelhart et al. 2022, doi:10.1038/s41597-022-01779-4. File: FLAb, binding data.